According to patent US8993614B2, “Substituted pyrrolidine-2-carboxamides” (Hoffmann-La Roche Inc., priority 2012, dated 2015):

Test: plasma pharmacokinetics after iv bolus of Compound A, LC-MS/MS
[1] = Compound A (prodrug) in plasma, 4.37 mg/kg Compound A iv bolus, mean, N=2

4-{[(2R,3S,4R,5S)-3-(3-Chloro-2-fluoro-phenyl)-4-(4-chloro-2-fluoro-phenyl)-4-cyano-5-(2,2-dimethyl-propyl)-pyrrolidine-2-carbonyl]-amino}-3-methoxy-benzoic acid 1-mPEG-carbonyloxy-ethyl ester (average MW, ˜2695) [Example 37]
Cmax (Compound A (prodrug) in plasma, 4.37 mg/kg Compound A iv bolus (1 mg/kg active parent), mean, N=2): 142 µg/mL
AUC(0−inf) [1]: 108 µg·h/mL
AUC(0−tlast) [1]: 108 µg·h/mL
apparent terminal half-life t½ [1]: 2.59 h
Vss (Compound A (prodrug), 4.37 mg/kg Compound A iv bolus, mean, N=2): 0.0235 L/kg
conversion to active drug (after iv bolus of prodrug): Significant conversion
recovered into urine (after iv bolus of prodrug): only very little
